Legend:
[1] = molecular target: T1, p53 and MDM2 interaction (p62(PB1)-p53 and AG-MDM2) (Homo sapiens, UniProt Q00987); experiment: Time course of fluorescent foci after Nutlin-3 addition, stable CHO-K1 cells (Example 25); format: cell-based; conditions: 10 μM, decrease of assemblies
T1 construct: region having the 7th to 125th amino acids of the MDM2 protein; expressed in transfected cells

Amino acid sequences for entries named in this document (tags omitted). Residues count along the entry.
UniProt Q00987, 1-119: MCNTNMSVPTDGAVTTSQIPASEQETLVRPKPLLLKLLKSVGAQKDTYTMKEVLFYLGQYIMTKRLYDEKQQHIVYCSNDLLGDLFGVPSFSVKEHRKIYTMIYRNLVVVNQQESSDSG

[2] = molecular target: T2, interaction between a p53 protein and an MDM2 protein (Homo sapiens, UniProt Q00987); experiment: Nutlin-3 stepwise addition, live imaging of fluorescent foci in HeLaS3 cells (Example 12); format: cell-based; conditions: HeLaS3 cells expressing p62(PB1)-p53 and AG-MDM2; 0.19, 0.77, 4.8, 12 μM; 15 minutes each
T2 construct: region having the 7th to 125th amino acids of the MDM2 protein; expressed in transfected cells; host or cells: HeLaS3, transient

time when the half value of total fluorescence luminance of assemblies was reached [1]: approximately 3 minutes
Compound: COc1ccc(C2=N[C@@H](c3ccc(Cl)cc3)[C@@H](c3ccc(Cl)cc3)N2C(=O)N2CCNC(=O)C2)c(OC(C)C)c1 [Nutlin-3]
fluorescence luminance of fluorescent foci in the field of view vs inhibitor concentration [2]: decreased in a manner dependent on the inhibitor concentration

From patent US9766250B2, “Method for detecting protein-protein interaction” (MEDICAL & BIOLOGICAL LABORATORIES CO., LTD., priority 2011, dated 2017)
